Data: PubChem BioAssay AID624256 (NMMLSC, 2012)
This is a selection; strong and weak results do not stand in their true shares. Calls of active or inactive are those of the source.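 Rule for the calls: active = normalized GFP-positive differentiation at or above the plate's own cutoff, the solvent-only control mean plus 3 SD; inconclusive = no clear call, values can overlap the other calls; inactive = the rest.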

Assay: HoxA9-arrested leukemia cell differentiation promoters – flow cytometry, MLPCN library, primary screen (AID 624256);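 for normalized GFP-positive differentiation: cells exposed to compound for four days before flow analysis; 0% = DMSO wells and 100% = fulvestrant positive control at 5 µM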
Details: ER-HoxA9 myeloid progenitors, lysozyme-GFP differentiation, at 10 µM; stronger effect = higher value

SMILES	normalized GFP-positive differentiation
CN1CCC(Nc2ccc(Cl)cc2)CC1	inactive
COc1cccc(C(c2nnnn2C2CCCC2)N2CCC(n3c(=O)[nH]c4ccccc43)CC2)c1OC (stereo unspecified)	inactive
COc1cc(OC)cc(C(=O)NCC2(N3CCOCC3)CCCCC2)c1	inactive
COc1cccc(C(=O)N(c2cc(C)cc(C)c2)C2CCN(C(=O)OC(C)(C)C)CC2)c1	inactive
CCC(CO)(C(=O)OC1CN2CCC1CC2)c1ccccc1 (stereo unspecified)	inactive
O=C(O)C1(Nc2ccccc2)CCN(Cc2ccccc2)CC1	inactive
NN(c1ccccc1)C1CCN(CCc2ccccc2)CC1	inactive
CC(C)(C)OC(=O)N1CCC(Nc2ccccc2)CC1	inactive
CCCOc1ccc(C(=O)NCC2(N(C)C)CCCCC2)cc1	inactive
O=c1[nH]c2ccccc2n1C1CCN(C(c2cc3ccccc3o2)c2nnnn2C2CCCC2)CC1 (stereo unspecified)	inactive
CN1CCC(Nc2ccc(F)c(Cl)c2)CC1	inactive
CCOc1ncccc1C(=O)NCC1(N2CCOCC2)CCCCC1	inactive
Cn1c(=O)[nH]cc(N(CCCl)CCCl)c1=O	inactive
CN(C)c1ccc(C(=O)NCC2(N3CCCCC3)CCCCC2)cc1	inactive
O=C(NCC1(N2CCCCC2)CCCCC1)c1ccco1	inactive
CC(C)(C)n1nnnc1C(c1ccnc2ccccc12)N1CCC(n2c(=O)[nH]c3ccccc32)CC1 (stereo unspecified)	inactive
COc1ccc(C(c2nnnn2C2CCCCC2)N2CCC(n3c(=O)[nH]c4ccccc43)CC2)cc1 (stereo unspecified)	inactive
CCN1CCC(Nc2cccc(F)c2)CC1	inactive
Cc1ccccc1NC1(C#N)CCN(Cc2ccccc2)CC1	inactive
Fc1ccccc1NC1CCN(Cc2ccccc2)CC1	inactive
Cc1ccc(C(=O)NCC2(N3CCCCC3)CCCCC2)o1	inactive
Cc1ccc(NC2(C#N)CCN(Cc3ccccc3)CC2)cc1	inactive

SMILES	normalized GFP-positive differentiation
CCC(c1nnnn1C1CCCCC1)N1CCC(n2c(=O)[nH]c3ccccc32)CC1 (stereo unspecified)	inactive
CC(=O)N(c1ccccc1)C1CCNCC1	inactive
COc1cccc(C(c2nnnn2C2CCCCC2)N2CCC(n3c(=O)[nH]c4ccccc43)CC2)c1OC (stereo unspecified)	inactive
O=c1[nH]c2ccccc2n1C1CCN(C(c2ccnc3ccccc23)c2nnnn2C2CCCCC2)CC1 (stereo unspecified)	inactive
COc1cc(OC)cc(C(=O)NCC2(N3CCCCC3)CCCCC2)c1	inactive
CC(C)(C)n1nnnc1C(c1cccc2ccccc12)N1CCC(n2c(=O)[nH]c3ccccc32)CC1 (stereo unspecified)	inactive
CN(C)C1(CNC(=O)c2cccc(C#N)c2)CCCCC1	inactive
O=c1[nH]c2ccccc2n1C1CCN(C(c2ccccc2)c2nnnn2C2CCCC2)CC1 (stereo unspecified)	inactive
CCCN1CCC(Nc2cc(OC)cc(OC)c2)CC1	inactive
c1ccc(CN2CCC(Nc3ccccc3)CC2)cc1	inactive
N#Cc1ccc(C(=O)NCC2(N3CCCCC3)CCCCC2)cc1	inactive
CC(C)(C)OC(=O)N1CCC(N(C(=O)c2ccccc2)c2ccc(Cl)cc2)CC1	inactive
O=c1[nH]c2ccccc2n1C1CCN(C(c2cccs2)c2nnnn2C2CCCC2)CC1 (stereo unspecified)	inactive
O=C(OC1CN2CCC1CC2)C1c2ccccc2C=Cc2ccccc21 (stereo unspecified)	inactive
CCCCn1nnnc1C(c1cccc(OC)c1OC)N1CCC(n2c(=O)[nH]c3ccccc32)CC1 (stereo unspecified)	inactive
COc1cccc(C(c2nnnn2C(C)(C)C)N2CCC(n3c(=O)[nH]c4ccccc43)CC2)c1OC (stereo unspecified)	inactive
N/C(=N\O)c1c(N)no[n+]1[O-]	inactive
O=c1[nH]c2ccccc2n1C1CCN(C(c2cccs2)c2nnnn2C2CCCCC2)CC1 (stereo unspecified)	inactive
O=c1[nH]c2ccccc2n1C1CCN(C(c2ccnc3ccccc23)c2nnnn2C2CCCC2)CC1 (stereo unspecified)	inactive
COc1ccc(C(=O)NCC2(N3CCOCC3)CCCCC2)cc1OC	inactive
COc1cc(C(=O)NCC2(N3CCOCC3)CCCCC2)cc(OC)c1C	inactive
CCCCn1nnnc1C(c1ccccc1)N1CCC(n2c(=O)[nH]c3ccccc32)CC1 (stereo unspecified)	inactive

SMILES	normalized GFP-positive differentiation
O=C(NCC1(N2CCOCC2)CCCCC1)c1cc(Br)ccc1Cl	inactive
COc1ccc(C(c2nnnn2C2CCCC2)N2CCC(n3c(=O)[nH]c4ccccc43)CC2)cc1 (stereo unspecified)	inactive
CCCOc1ccc(C(=O)NCC2(N(C)C)CCCCC2)cc1OC	inactive
Cc1ccc(C(=O)NCC2(N(C)C)CCCCC2)o1	inactive
O=C(NCC1(N2CCCCC2)CCCCC1)c1cncc(Br)c1	inactive
CN1CCC(Nc2cccc(F)c2)CC1	inactive
O=C(NCC1(N2CCOCC2)CCCCC1)c1cc(F)c(F)cc1Cl	inactive
CCC(c1nnnn1C(C)(C)C)N1CCC(n2c(=O)[nH]c3ccccc32)CC1 (stereo unspecified)	inactive
COc1cc(OC)c(C(=O)NCC2(N(C)C)CCCCC2)cc1OC	inactive
CCCCn1nnnc1C(c1ccnc2ccccc12)N1CCC(n2c(=O)[nH]c3ccccc32)CC1 (stereo unspecified)	inactive
CC(C)c1ccc(NC2CCN(C(=O)OC(C)(C)C)CC2)cc1	inactive
CCCCn1nnnc1C(c1ccccc1OC(F)(F)F)N1CCC(n2c(=O)[nH]c3ccccc32)CC1 (stereo unspecified)	inactive
CN(C)c1cccc(C(=O)NCC2(N3CCCCC3)CCCCC2)c1	inactive
COc1ccc(CN(CCCl)CCCl)cc1Cl	inactive
COc1cc(C(=O)NCC2(N3CCCCC3)CCCCC2)ccc1OC(F)F	inactive
O=C(NCC1(N2CCOCC2)CCCCC1)c1cc(=O)[nH]c2ccccc12	inactive
CCCCn1nnnc1C(c1cccc2ccccc12)N1CCC(n2c(=O)[nH]c3ccccc32)CC1 (stereo unspecified)	inactive
CN1CCN(CCOC(=O)C(O)(c2ccccc2)c2ccccc2)CC1	inactive
COc1ccc(NC2CCN(C(=O)OC(C)(C)C)CC2)cc1	inactive
CC(C)c1ccc(C(=O)NCC2(N3CCOCC3)CCCCC2)cc1	inactive
O=C(NCC1(N2CCCCC2)CCCCC1)c1cccc(C(F)(F)F)c1	inactive
N#CC1(Nc2ccccc2)CCN(CCc2ccccc2)CC1	inactive

SMILES	normalized GFP-positive differentiation
O=c1[nH]c2ccccc2n1C1CCN(C(c2ccccc2OC(F)(F)F)c2nnnn2C2CCCC2)CC1 (stereo unspecified)	active: 27.9%
CCN1CCC(Nc2ccc(Cl)cc2)CC1	inactive
CSc1ccc(C(=O)NCC2(N3CCOCC3)CCCCC2)cc1	inactive
O=C(NCC1(N2CCCCC2)CCCCC1)c1cccc([N+](=O)[O-])c1	inactive
O=C(NCC1(N2CCCCC2)CCCCC1)c1ccc(OC(F)F)cc1	inactive
CC(C)(C)n1nnnc1C(c1ccccc1OC(F)(F)F)N1CCC(n2c(=O)[nH]c3ccccc32)CC1 (stereo unspecified)	inactive
COc1cc(C(=O)NCC2(N(C)C)CCCCC2)ccc1OC(F)F	inactive
CCOC(=O)N1CCC(Nc2cccc(C)c2)CC1	inactive
O=c1[nH]c2ccccc2n1C1CCN(C(c2cccc3ccccc23)c2nnnn2C2CCCC2)CC1 (stereo unspecified)	inactive
O=c1[nH]c2ccccc2n1C1CCN(C(c2ccccc2)c2nnnn2C2CCCCC2)CC1 (stereo unspecified)	inactive
COc1ccc(NC2CCN(CCc3ccccc3)CC2)c(OC)c1	inactive
CCOC(=O)N1CCC(Nc2ccc(F)cc2)CC1	inactive
O=C(NCC1(N2CCCCC2)CCCCC1)c1ccc(F)cc1	inactive
O=P1(N(CCCl)CCCl)SCCCS1	inactive
CCCCn1nnnc1C(c1cc2ccccc2o1)N1CCC(n2c(=O)[nH]c3ccccc32)CC1 (stereo unspecified)	inactive
CCCCOc1ccc(C(=O)NCC2(N3CCOCC3)CCCCC2)cc1	inactive
O=C1CCN(Cc2ccccc2)CC1	inactive
CC(C)(C)n1nnnc1C(c1ccccc1)N1CCC(n2c(=O)[nH]c3ccccc32)CC1 (stereo unspecified)	inactive
CCOc1ccc(C)cc1CN(CCCl)CCCl	inactive
COc1ccc(Cl)cc1C(=O)NCC1(N2CCOCC2)CCCCC1	inactive
O=C(OC1CN2CCC1CC2)C1c2ccccc2Oc2ccccc21 (stereo unspecified)	inactive
O=c1[nH]c2ccccc2n1C1CCN(C(c2cc3ccccc3o2)c2nnnn2C2CCCCC2)CC1 (stereo unspecified)	inactive

SMILES	normalized GFP-positive differentiation
N#CC1(Nc2ccccc2)CCN(Cc2ccccc2)CC1	inactive
O=C(NCC1(N2CCCCC2)CCCCC1)c1ccc(Cl)s1	inactive
CCCCn1nnnc1C(c1ccc(OC)cc1)N1CCC(n2c(=O)[nH]c3ccccc32)CC1 (stereo unspecified)	inactive
CCOC(=O)N1CCC(Nc2ccc(OC)cc2)CC1	inactive
Cc1cc(C)cc(N(C(=O)c2ccccc2)C2CCN(C(=O)OC(C)(C)C)CC2)c1	inactive
O=c1[nH]c2ccccc2n1C1CCN(C(c2ccccc2OC(F)(F)F)c2nnnn2C2CCCCC2)CC1 (stereo unspecified)	inactive
O=C(NCC1(N2CCCCC2)CCCCC1)c1ccc(Cl)nc1	inactive
O=C(NCC1(N2CCOCC2)CCCCC1)c1cc2ccccc2o1	inactive
Cc1cccc(NC2(C#N)CCN(Cc3ccccc3)CC2)c1	inactive
CSc1ccccc1C(=O)NCC1(N2CCCCC2)CCCCC1	inactive
CCC(c1nnnn1C1CCCC1)N1CCC(n2c(=O)[nH]c3ccccc32)CC1 (stereo unspecified)	inactive
COc1ccc(C(=O)NCC2(N3CCCCC3)CCCCC2)c(OC)c1OC	inactive
CC(C)(C)OC(=O)N1CCC(N(C(=O)c2ccccc2)c2ccc(F)cc2)CC1	inactive
COc1ccc(C(=O)NCC2(N3CCCCC3)CCCCC2)cc1	inactive
CCCCn1nnnc1C(c1cccs1)N1CCC(n2c(=O)[nH]c3ccccc32)CC1 (stereo unspecified)	inactive
CCCCn1nnnc1C(CC)N1CCC(n2c(=O)[nH]c3ccccc32)CC1 (stereo unspecified)	inactive
O=C(NCC1(N2CCCCC2)CCCCC1)c1cccs1	inactive
O=C(NCC1(N2CCCCC2)CCCCC1)c1ccc(=O)[nH]c1	inactive
